The Ki is the dissociation constant of the complex between target and ligand, obtained from inhibition or displacement.

Amino acid sequences for entries named in this document (tags omitted). Residues count along the entry.
UniProt P28335, 33-458 limits assumed: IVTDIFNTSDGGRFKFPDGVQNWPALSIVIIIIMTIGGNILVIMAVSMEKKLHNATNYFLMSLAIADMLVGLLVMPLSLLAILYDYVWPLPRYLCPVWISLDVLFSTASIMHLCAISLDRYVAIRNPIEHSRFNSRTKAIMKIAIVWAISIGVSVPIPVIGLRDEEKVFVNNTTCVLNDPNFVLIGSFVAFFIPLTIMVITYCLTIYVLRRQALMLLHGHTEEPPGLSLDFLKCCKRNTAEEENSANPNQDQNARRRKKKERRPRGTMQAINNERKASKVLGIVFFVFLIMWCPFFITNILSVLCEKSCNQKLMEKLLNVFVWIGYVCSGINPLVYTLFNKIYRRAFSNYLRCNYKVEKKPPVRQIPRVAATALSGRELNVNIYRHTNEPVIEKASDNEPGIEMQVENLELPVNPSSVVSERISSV
UniProt P41595, whole entry: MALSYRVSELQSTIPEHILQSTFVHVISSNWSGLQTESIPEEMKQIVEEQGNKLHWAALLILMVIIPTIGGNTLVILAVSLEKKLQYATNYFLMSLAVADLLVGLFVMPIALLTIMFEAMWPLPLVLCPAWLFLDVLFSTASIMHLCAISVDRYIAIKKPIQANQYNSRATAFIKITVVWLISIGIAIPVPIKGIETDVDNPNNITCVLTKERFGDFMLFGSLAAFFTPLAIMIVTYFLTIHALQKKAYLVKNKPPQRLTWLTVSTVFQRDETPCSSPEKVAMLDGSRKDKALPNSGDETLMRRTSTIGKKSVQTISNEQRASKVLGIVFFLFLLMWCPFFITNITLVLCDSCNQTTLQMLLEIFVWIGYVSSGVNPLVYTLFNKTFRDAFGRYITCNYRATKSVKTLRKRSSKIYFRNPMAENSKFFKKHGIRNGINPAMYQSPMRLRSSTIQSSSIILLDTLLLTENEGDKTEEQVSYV
UniProt P28223, whole entry: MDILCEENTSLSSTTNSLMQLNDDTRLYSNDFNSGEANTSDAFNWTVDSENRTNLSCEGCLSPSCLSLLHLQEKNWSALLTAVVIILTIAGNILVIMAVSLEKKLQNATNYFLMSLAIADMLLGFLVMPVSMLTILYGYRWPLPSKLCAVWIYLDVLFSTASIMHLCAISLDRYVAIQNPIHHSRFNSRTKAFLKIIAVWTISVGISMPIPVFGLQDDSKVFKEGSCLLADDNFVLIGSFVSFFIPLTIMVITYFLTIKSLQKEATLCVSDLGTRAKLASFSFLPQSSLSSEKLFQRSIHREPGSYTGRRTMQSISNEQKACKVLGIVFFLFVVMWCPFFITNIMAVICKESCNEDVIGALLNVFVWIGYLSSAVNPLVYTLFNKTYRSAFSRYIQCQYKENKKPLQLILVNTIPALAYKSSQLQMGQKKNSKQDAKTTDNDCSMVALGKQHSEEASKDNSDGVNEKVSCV
UniProt P35367, whole entry: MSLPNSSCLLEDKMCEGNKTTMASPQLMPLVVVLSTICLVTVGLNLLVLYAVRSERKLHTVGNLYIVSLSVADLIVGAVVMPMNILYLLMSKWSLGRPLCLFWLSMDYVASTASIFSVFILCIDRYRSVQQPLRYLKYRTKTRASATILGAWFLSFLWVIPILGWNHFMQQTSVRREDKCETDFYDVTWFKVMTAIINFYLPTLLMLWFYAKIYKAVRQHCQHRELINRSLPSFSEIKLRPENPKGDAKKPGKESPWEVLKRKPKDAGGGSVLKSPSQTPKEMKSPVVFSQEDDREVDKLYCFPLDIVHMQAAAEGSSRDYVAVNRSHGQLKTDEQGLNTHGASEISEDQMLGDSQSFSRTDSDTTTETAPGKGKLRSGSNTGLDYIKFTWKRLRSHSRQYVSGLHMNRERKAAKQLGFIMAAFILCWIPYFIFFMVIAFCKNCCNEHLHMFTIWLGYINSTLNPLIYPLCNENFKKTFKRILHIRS

SMILES strings stand for the structures.

The values that follow come from US8586634B2, “Therapeutic compounds” (University of Florida Research Foundation, Inc., priority 2007, dated 2013).

The first experiment has as its target 5-HT2C receptors (Homo sapiens, UniProt P28335). In words: Radioreceptor competition binding, [3H]-mesulergine, membranes of transfected CHO-K1 cells. Particulars: read-out: Ki @ 5HT2c ± SEM; nM; Example 12 table.
`CN(C)[C@@H]1Cc2ccccc2[C@@H](c2ccccc2Cl)C1` (relative stereo): the Ki was determined as 340 nM.

For `CN(C)[C@@H]1Cc2cc(O)c(O)cc2[C@H](c2ccccc2)C1` (relative stereo), the inhibitory constant (Ki) turned out to be 5000 nM. On the same count and under the same terms, with `Cc1ccccc1[C@H]1C[C@H](N(C)C)Cc2ccccc21` (relative stereo) the figure was 450 nM.

As for `N[C@@H]1Cc2cc(O)c(O)cc2[C@H](c2ccccc2)C1` (relative stereo), the inhibition constant Ki came out at 5000 nM. As to `CN(C)[C@@H]1Cc2ccccc2[C@@H](c2ccc(F)cc2)C1` (relative stereo), the Ki came to 300 nM. On the same count and under the same terms, with `Cc1ccc([C@H]2C[C@H](N(C)C)Cc3ccccc32)cc1` (relative stereo) the figure was 170 nM; with `CN(C)[C@@H]1CCc2ccccc2[C@H](c2ccccc2)C1` (relative stereo), 1200 nM.

Turning to `CN(C)[C@@H]1Cc2cc(Cl)c(O)cc2[C@H](c2ccccc2)C1` (relative stereo), the Ki was found to be 250 nM. For `CN(C)[C@@H]1CCc2ccccc2[C@@H](c2ccccc2)C1` (relative stereo), the inhibition constant Ki turned out to be 1800 nM. Same read-out and setting: in the case of `CN(C)[C@@H]1Cc2ccccc2[C@@H](c2ccc(Cl)cc2)C1` (relative stereo) it was 200 nM; in that of `CN(C)[C@@H]1Cc2cc(Cl)c(O)cc2[C@@H](c2ccccc2)C1` (relative stereo), 20 nM; in that of `CN(C)[C@@H]1Cc2cc(O)c(O)cc2[C@@H](c2ccccc2)C1` (relative stereo), 300 nM. Still for that read-out and setting: in the case of `N[C@@H]1Cc2cc(O)c(O)cc2[C@@H](c2ccccc2)C1` (relative stereo) it was 5000 nM.

Another experiment addresses 5-HT2B receptors (Homo sapiens, UniProt P41595). The description is as above. Particulars: read-out: 5HT2B Ki ± SEM; Table 5.
Consider `CN(C)[C@@H]1Cc2ccccc2[C@H](c2ccccc2)C1`, for which the Ki was over 5000 nM.

The next experiment concerns the target 5-HT2A receptors (Homo sapiens, UniProt P28223). As to the kind of experiment: Radioreceptor competition binding, [3H]-ketanserin, membranes of transfected CHO-K1 cells. Particulars: Table 5, 5HT2A.
`CN(C)[C@@H]1Cc2ccccc2[C@H](c2ccccc2)C1`: the nH is given as 1.0.

Another experiment concerns the target H1 (Homo sapiens, UniProt P35367).
Assay: not given
Particulars: cited from earlier work.
In the case of `CN(C)[C@@H]1CCc2ccccc2[C@H](c2ccccc2)C1` (relative stereo), the “H1-linked PLC signaling” value is recorded as “activate”.
